# Measurements from patent US20160192658A1 (priority 2013, published 2016).
# Legend:
# [1] = tested on: MDCK cells
# [2] = tested on: HEp-2 cells
substance,measurement,setting,value
Hydrogen,cytotoxicity to the MDCK cells,[1],not found to have any cytotoxicity
same,toxicity to HEp-2 cells,[2],not confirmed to have any marked toxicity
